Values of other authors as cited in paper PMC11600623 (Clinical and Translational Science, 2024).

Tested on: FLT3-ITD-positive patients with relapsed/refractory (R/R) AML
Conditions: single-agent quizartinib; cited from earlier work

CC(C)(C)c1cc(NC(=O)Nc2ccc(-c3cn4c(n3)sc3cc(OCCN5CCOCC5)ccc34)cc2)no1 [quizartinib]
OS as compared to salvage chemotherapy: improved OS
